Sequences of proteins named here, by UniProt entry; tags and fusion partners are left off.
UniProt P41143, whole entry: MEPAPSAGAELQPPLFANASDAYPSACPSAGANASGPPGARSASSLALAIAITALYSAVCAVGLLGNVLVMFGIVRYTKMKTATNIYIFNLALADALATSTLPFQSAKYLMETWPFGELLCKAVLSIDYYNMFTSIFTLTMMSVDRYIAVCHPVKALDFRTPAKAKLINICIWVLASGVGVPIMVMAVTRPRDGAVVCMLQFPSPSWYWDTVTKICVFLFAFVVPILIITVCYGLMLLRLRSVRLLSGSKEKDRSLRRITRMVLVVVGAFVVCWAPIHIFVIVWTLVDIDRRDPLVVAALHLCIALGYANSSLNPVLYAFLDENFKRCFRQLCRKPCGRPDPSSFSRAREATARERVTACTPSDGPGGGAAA
UniProt P35372, whole entry: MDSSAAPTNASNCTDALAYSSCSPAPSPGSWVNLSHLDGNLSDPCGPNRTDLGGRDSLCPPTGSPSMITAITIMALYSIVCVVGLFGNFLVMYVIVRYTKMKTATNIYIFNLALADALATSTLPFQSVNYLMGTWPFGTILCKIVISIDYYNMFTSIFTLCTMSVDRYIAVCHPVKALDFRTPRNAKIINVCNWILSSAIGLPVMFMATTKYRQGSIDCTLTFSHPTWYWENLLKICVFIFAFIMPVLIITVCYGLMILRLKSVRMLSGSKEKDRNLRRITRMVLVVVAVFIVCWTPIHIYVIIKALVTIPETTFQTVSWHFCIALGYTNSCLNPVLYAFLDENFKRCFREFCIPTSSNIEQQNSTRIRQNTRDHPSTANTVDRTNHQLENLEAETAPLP

According to ChEMBL document CHEMBL3758122, “Multitarget opioid ligands in pain relief: New players in an old game” (Eur J Med Chem, 2016):

Columns and labels:
[1] = target: Delta-type opioid receptor (Homo sapiens, UniProt P41143); test: Binding affinity at delta opioid receptor (unknown origin)
[2] = target: Mu-type opioid receptor (Homo sapiens, UniProt P35372); test: Binding affinity at mu opioid receptor (unknown origin)

Cc1cc(O)cc(C)c1C[C@H](N)C(=O)N[C@H](CCCNC(=N)N)C(=O)N[C@@H](Cc1ccccc1)C(=O)N[C@@H](CCCCN)C(N)=O
Ki [1]: 2100 nM

Oc1ccc2c(c1)[C@@]13CCCC[C@H]1[C@@H](C2)N(CC1CCC1)CC3 [BUTORPHAN]
Ki [2]: 0.12 nM
